# Apparent affinities of Ab-14 variants for a coronavirus HR2 peptide

From the AlphaSeq antibody data of Li et al. 2023 (doi:10.1038/s41467-023-39022-2), copy in the FLAb collection.

The target is the same throughout: PDVDLGDISGINAS, from the HR2 region of SARS-CoV-2 spike.

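Phage display of a naive human antibody library on the peptide gave the parent. This is the validation round: designs drawn from the data on random variants, tested in the same kind of assay. Group labels follow the data file (En: ensemble of fine-tuned language models; GP: Gaussian process model; HC: hill climbing; Gen: genetic algorithm; Gibbs: Gibbs sampling; a sequence that several methods proposed may carry one label only). AlphaSeq pools MATa yeast showing the antibodies with MATalpha yeast showing the peptide. Pairs that bind mate more often; barcode pairs of the diploids are counted by sequencing. Each replicate has its own calibration line, from reference interactions of the BCL2 family. There are six technical replicates.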

Parent scFv Ab-14: VH joined to VL by the linker GGGGSGGGGSGGGGS. Changes lie in the light chain CDRs alone.
VH: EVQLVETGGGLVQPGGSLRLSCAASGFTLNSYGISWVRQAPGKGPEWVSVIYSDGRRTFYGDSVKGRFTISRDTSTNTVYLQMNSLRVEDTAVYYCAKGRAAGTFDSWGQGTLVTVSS
VL: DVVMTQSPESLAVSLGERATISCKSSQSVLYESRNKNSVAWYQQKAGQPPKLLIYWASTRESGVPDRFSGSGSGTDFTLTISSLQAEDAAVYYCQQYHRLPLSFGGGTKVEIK

The parent's light chain CDRs are KSSQSVLYESRNKNSVA, WASTRES, QQYHRLPLS; each variant's own CDRs replace them letter for letter.
This list holds designs with more than six substitutions.
Each Kd is an estimate from the mating assay, the geometric mean of the replicates in which the pair was seen; lower is stronger.
"nd" marks a missing value. The strain was present, yet no cells mated with the target were sequenced in any replicate, which points to weak or no binding.
Empty control strains, which show no peptide, gave a signal in 4% of pairings with all light chain designs; the median was 430 nM and 95% of these signals were weaker than 38 nM. No background was subtracted. For each scFv, signals with the empty controls are counted beside the result.
The parent sequence was in this pool as ten entries: three were never detected, three once, and four in most replicates, with averages from 2.2 nM to 240 nM.
The range of this assay differs from that of the first round, and the authors advise against merging the two.
The authors' rule: three or more of the six replicates give a measured affinity, fewer mean a poor binder.

| CDR-L1 | CDR-L2 | CDR-L3 | group | Kd | seen in | signal with controls |
|---|---|---|---|---|---|---|
| NISHFMDTTAKHNNNVA | EMEMREV | QQYHHLPLS | En_Gen | 36 nM | 6/6 | 1/18 |
| SMQVYTENFMEIGQNIA | DVSATTA | QQYHRLPLA | En_Gibbs | 3.4 nM | 6/6 | 0/18 |
| KVSEFMKGLMMRKDSIA | DNTTREN | QQYDRLPLS | En_Gen | 490 nM | 1/6 | 0/18 |
| KISYMGEHFSTNHSAIA | QASEREQ | QQYHRLPIS | En_HC | 7.2 nM | 6/6 | 1/18 |
| KMQQSYLMESRNCNSVA | NASTRLW | QQYHRLPLS | GP_Gibbs | 2.5 nM | 6/6 | 1/18 |
| LISGVWTYGSRNYNSVA | QTSTRES | QQYDRLPLS | En_HC | 11 nM | 6/6 | 0/18 |
| KIGLVTNGISFSKNSVA | EQSTRSN | QQYDRLPLS | En_HC | 280 nM | 3/6 | 0/18 |
| KVQYQLAPSEAHTNPVA | DASVVCA | QQYDRLPLG | En_Gibbs | 95 nM | 5/6 | 1/18 |
| TISQSAQQESHNKNSVA | DLNMRGS | QQYDRLPLS | En_HC | 4.2 nM | 6/6 | 2/18 |
| TLGDVTRMESNKKNSIA | DMSNRED | QQYHRLPLS | En_HC | 790 pM | 6/6 | 0/18 |
| IVSQLMLWGYTAKNSIA | EAQTRVN | QQYERLPLF | En_Gen | 130 nM | 1/6 | 0/18 |
| KLTEAMASWTGDRHNIA | DITVTAP | QQYSRLPIT | En_Gibbs | 1.4 nM | 6/6 | 0/18 |
| QIYQAMHTLMQQKNNVA | DVTNRNR | QQYNRLPLS | En_Gen | 2.3 nM | 6/6 | 2/18 |
| KLTMMYQHTSKNTNNIA | ERSTREE | QQYHHLPLS | En_HC | 1.9 nM | 6/6 | 1/18 |
| KVSGSELEESRNKGSVA | WASKREE | QQYHRLPLS | GP_Gibbs | 2.7 nM | 6/6 | 0/18 |
| KLFQSELYESRQANNVA | NASQRES | QQYHRLPLS | GP_Gibbs | 1.1 nM | 6/6 | 0/18 |
| KLYQMTGIESHAKNSLA | DANRRED | QQYHRLPLS | En_HC | 1.1 nM | 6/6 | 2/18 |
| TISQLHNMGTFAINSVA | QASLRNE | QQYDRLPLA | En_Gen | 14 nM | 6/6 | 2/18 |
| KLRQVTGYESYLRNSVA | QMSTRAE | QDYHRLPLS | En_HC | 2.4 nM | 6/6 | 0/18 |
| KFDQEWLYESRNKNSVA | MASQRCS | QQYHRLPLS | GP_Gibbs | 730 pM | 6/6 | 0/18 |
| IFSQSVLMGQMTRNSVA | QASTRFN | QQYHRLPLI | En_HC | 9.4 nM | 3/6 | 0/18 |
| HMSMLTLQGLRHRNSVA | QMTTREN | QQYDRLPLS | En_Gen | 5.7 nM | 6/6 | 1/18 |
| QIAIHGMDENQMYNHIA | NENIRET | QQYWHLPLS | En_Gibbs | 2.7 nM | 6/6 | 2/18 |
| MISQILNMGSFAINSVA | QASIRNE | QQYDRLPLM | En_Gen | 4.6 nM | 6/6 | 0/18 |
| MIAAGLRGVGRNKNSVA | NAQTRED | QHYHRLPLS | En_HC | 51 nM | 5/6 | 0/18 |
| KLSQEVLMEQRNHNSVA | SANTREE | QQYHRLPLS | GP_Gibbs | 420 pM | 6/6 | 0/18 |
| HMNHEYLDYSNYENNIA | HGSQRLY | QQYSHLPLS | En_Gibbs | 2.3 nM | 6/6 | 1/18 |
| SVRHPFQGENGRKASIA | NATIRDH | QQYFRLPLF | En_Gibbs | 8.8 nM | 6/6 | 2/18 |
| QLEFERGDAYKQKNSIA | GGTESLH | QQYAWLPLS | En_Gibbs | 3.8 nM | 6/6 | 1/18 |
| KLGDMVHTEMRNKNSIA | DMRTRES | QQYYRLPLS | En_HC | 600 pM | 6/6 | 0/18 |
| QISMLLNFESKKGSNVA | QMETRVN | QQYDRLPLS | En_Gen | 3.0 nM | 6/6 | 1/18 |
| NLSWKTIGFENEWMAIA | NTSERNA | QQYARLPLS | En_Gibbs | 5.1 nM | 6/6 | 4/18 |
| TISGLTNQAAMKSNSVA | NVTMRPD | QQYHRLPLS | En_Gen | 1.7 nM | 6/6 | 1/18 |
| RIWANCYDEEASNNSVA | NDRLAVQ | QQYDRLPLS | En_Gibbs | nd | 0/6 | 0/18 |
| KLEMLVDYKDRNLNSVA | NASTRES | QQYHRLPLS | GP_Gibbs | 990 pM | 6/6 | 1/18 |
| TISQSFLMENQFKNSVA | QASTRET | QCYDRLPLS | En_HC | 42 nM | 6/6 | 0/18 |
| KIQQGELMESRNKNSVA | HASERES | QQYHRLPLS | GP_Gibbs | 3.2 nM | 6/6 | 0/18 |
| MLSQLVKMGSRNTNSVA | DNSTRGS | QQYDRLPLS | En_HC | 210 nM | 6/6 | 0/18 |
| NVSQMVLTGSTLRNSVA | HASTRFN | QQYHRLPLI | En_HC | 38 nM | 6/6 | 0/18 |
| KLLQTTMNETRNRNNVA | HMTTRED | QQYHRLPLS | En_HC | 14 nM | 6/6 | 1/18 |
| KMSQAWWYESRMKWSVA | NASERES | QQYHRLPLS | GP_Gibbs | 1.3 nM | 6/6 | 0/18 |
| QISQVMGLSMHQVNNVA | QMTTREE | QQYDRLPLS | En_Gen | 4.1 nM | 6/6 | 1/18 |
| KLDLENGHEDKKGQNIA | EASTAGD | QSYWRLPLS | En_Gibbs | 36 nM | 4/6 | 0/18 |
| KVSGSVLLWSRTANQVA | EASTRES | QQYHRLPLS | GP_Gibbs | 5.2 nM | 6/6 | 4/18 |
| LLPQSMEYESRNKQSVA | AASTRES | QQYHRLPLS | GP_Gibbs | 2.0 nM | 6/6 | 1/18 |
| KLSMSHGYGSRMKNSVA | QASQREE | QQYHRLPLS | GP_Gibbs | 4.5 nM | 6/6 | 3/18 |
| KLYQSMGYLSHNKNSIA | DMSRRES | QQYHRLPLS | En_HC | 2.9 nM | 6/6 | 0/18 |
| NLQLQPRDGAQAQNSIA | DVSEADM | QHYARLPLT | En_Gibbs | 150 nM | 6/6 | 0/18 |
| QLSVFELQGTGWAQNIA | QADHRTE | QQFARLPLV | En_Gibbs | 4.5 nM | 6/6 | 2/18 |
| HISESMYYQSRIKNNIA | EMSTRER | QHYHRLPLS | En_HC | 14 nM | 6/6 | 0/18 |
| HISYSMAHLSRNKNSVA | NQQTREE | QQYHRLPLS | En_HC | 14 nM | 6/6 | 0/18 |
| KITGTMRFEQKASNNIA | EVTQRTK | QQYYRLPLS | En_Gen | 3.6 nM | 6/6 | 1/18 |
| KSSGSVLYEDRMVNSVA | NASQREE | QQYHRLPLS | GP_Gibbs | 2.1 nM | 6/6 | 0/18 |
| KLSCSEPYDSPMSNSVA | NASTRER | QQYHRLPLS | GP_Gibbs | 1.0 nM | 6/6 | 0/18 |
| MISQSFLIGMRAKNSVA | QTSTRES | QQYDRLPLS | En_HC | 12 nM | 6/6 | 1/18 |
| RINIAGMTVDEHYSNVA | AQRLTSE | QQYFRLPLS | En_Gibbs | 12 nM | 6/6 | 1/18 |
| KIQQSVYYEDLNKNSVA | HASTRLQ | QQYHRLPLS | GP_Gibbs | 1.8 nM | 6/6 | 1/18 |
| LLSGSSGYEQRNKNSVA | DASTRES | QAYHRLPLS | GP_Gibbs | 67 nM | 6/6 | 0/18 |
| KTEVSQDYESRNQNSVA | NASQRES | QQYHRLPLS | GP_Gibbs | 990 pM | 6/6 | 1/18 |
| TLSQMSGVESVKHNSVA | ENSTREK | QQYDRLPLA | En_Gen | 670 nM | 4/6 | 2/18 |
| KISQMQRVGQTHGNSIA | EEQTRAK | QQYHRLPLS | En_Gen | 2.7 nM | 6/6 | 0/18 |

The 4 strongest on average among those seen in every replicate, once more:

| CDR-L1 | CDR-L2 | CDR-L3 | group | Kd | seen in | signal with controls |
|---|---|---|---|---|---|---|
| KLSQEVLMEQRNHNSVA | SANTREE | QQYHRLPLS | GP_Gibbs | 420 pM | 6/6 | 0/18 |
| KLGDMVHTEMRNKNSIA | DMRTRES | QQYYRLPLS | En_HC | 600 pM | 6/6 | 0/18 |
| KFDQEWLYESRNKNSVA | MASQRCS | QQYHRLPLS | GP_Gibbs | 730 pM | 6/6 | 0/18 |
| TLGDVTRMESNKKNSIA | DMSNRED | QQYHRLPLS | En_HC | 790 pM | 6/6 | 0/18 |